Screening data as filed in PubChem.
MC4R antag cAMP: blocks human MC4R cAMP signaling. MC4R-expressing cells, MTII-stimulated cAMP, LANCE TR-FRET. 0.48% of 360,000 active. inhibition, % at 6.5 µM;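 active means inhibition above its plate's cutoff, the mean of tested wells on that plate plus 3 SD, cut at about 29% in these data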
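System: U2OS cells stably expressing human melanocortin 4 receptor (MC4R). Reagent: Melanotan II challenge after compound preincubation. Doses: 6.5 µM. Times: 30-min compound, 1-h challenge, 1-h detection, room temperature. Measured by: TR-FRET with Eu-cAMP and labeled anti-cAMP, 671 nm. Replicates: singlicate.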
NALP1 inh: NALP1 inhibition; S. cerevisiae NALP1/ASC/caspase-1 growth, X-gal OD620, 72 h; inhibition, % at 10 µM; 0.61% of 280,000 active; in the data active means inhibition mostly above about 24%, no sharp cut-off; inactive means mostly below about 32%
ALR H2O2 inh: inhibitors of human ALR sulfhydryl oxidase, primary screen, biochemical, H2O2 detection, HRP-luminol luminescence, single point; purified ALR, DTT oxidation; inhibition, % (no concentration beside the values); 290,000 tested, 3.8% active;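 active = mean and each replicate at 75% or more; inconclusive = only one of the two met; inactive = neither met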;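 also: stock transfer was 7.5 nL into about 7.5 µL; 0% = neutral wells and 100% = wells with inactivated enzyme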
MC4R barr agon: activates human MC4R beta-arrestin recruitment. U2OS MC4R beta-arrestin complementation, luminescence; percent of melanotan II response, DMSO zero. P32245. activation, % at 8.9 µM. AID 540308. 0.98% of 360,000 active;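 active means activation above a per-plate cutoff, the mean activation of sample wells on that plate plus 3 SD, cut at about 8% in these data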
HDAC3 inhib: blocks human histone deacetylase 3; inhibition, % at 8.3 µM; 0.15% of 320,000 active; recombinant HDAC3, fluorogenic peptide/trypsin coupled, fluorescence; in the data active means inhibition above about 26%, passing the limit was not always enough; inconclusive means no clear call, values can overlap the other calls
Yeast UUG start: yeast start codon fidelity modulation | S. cerevisiae UUG-firefly luciferase reporter, luminescence/redox ratio | activity score, % at 18.7 µM | hit rate 0.13% among 350,000 | AID 602363;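 active means replicate mean at a twofold rise or more, about +100% in these data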;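 further: firefly luciferase made from a UUG start codon reports start codon fidelity; reporter light over untreated wells divided by growth signal over untreated wells; some hits fall short of that in this replicate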
Hits are given with their value; – = inactive; ? = inconclusive; · = not tested or not shown. Sampled rows, rich in hits. Any-hit rate of the full collection: about 4.2%.

SMILES	MC4R antag cAMP	NALP1 inh	ALR H2O2 inh	MC4R barr agon	HDAC3 inhib	Yeast UUG start
N=C(N)SCc1nc2ccccc2c(=O)n1-c1ccccc1	–	–	98	–	–	·
Oc1ccc(-c2cn3ccccc3n2)cc1	–	–	99	–	–	·
Oc1ccc(-c2cn3ccccc3n2)cc1O	–	–	99	–	–	–
c1ccc(-c2cn3ccccc3n2)cc1	–	·	·	–	·	–
Cc1ccn2cc(-c3cccc(NC(=O)C(C)C)c3)nc2c1	–	–	–	–	?	·
Cc1ccn2cc(-c3ccc(O)c(O)c3)nc2c1	–	–	99	–	·	–
CN(C)S(=O)(=O)c1ccc(-c2cn3ccccc3n2)cc1	–	–	99	–	–	–
CO[C@H]1CN(C)C(=O)c2ccc(NS(=O)(=O)c3ccc(Cl)cc3)cc2OC[C@@H](C)NC[C@H]1C	·	·	·	·	·	–
O=C(C[C@@H]1CC[C@H]2[C@@H](COC[C@H](O)CN2Cc2nccs2)O1)NCc1ccccc1F	·	·	·	·	·	–
COc1ccc(NC(=O)Nc2ccc3c(c2)C(=O)N([C@@H](C)CO)C[C@@H](C)[C@@H](CN(C)Cc2ccc(C(=O)O)cc2)OCCCC[C@@H](C)O3)cc1	·	·	·	·	·	–
COC(=O)N/N=C/c1sc(N2CCCCC2)nc1-c1cccs1	–	–	98	–	–	–
COc1cccc(N2CCN(c3ccc4nnc(CCC(=O)N5CCC(C)CC5)n4n3)CC2)c1	–	–	99	–	?	–
COc1ccc(N2CCN(C(=O)CCc3nnc4ccc(N5CCC(C)CC5)nn34)CC2)cc1	–	–	90	–	–	–
COc1cccc(N2CCN(c3ccc4nnc(CCC(=O)Nc5cccc(C(C)=O)c5)n4n3)CC2)c1	–	–	–	–	–	–
CCCN1CCN(C(=O)CCc2nnc3ccc(N4CCN(c5cccc(OC)c5)CC4)nn23)CC1	–	–	99	–	–	–
C[C@@H]1CN([C@H](C)CO)C(=O)Cc2cc(NC(=O)CCN3CCOCC3)ccc2O[C@@H]1CN(C)S(=O)(=O)c1ccccc1	·	·	·	·	·	–
C=CCNc1nc(Nc2cc(Cl)ccc2OC)nc(OC)n1	–	25	–	–	–	–
Clc1ccc(-c2nc3ccncc3[nH]2)cc1	–	–	99	–	–	·
Fc1ccc(-c2nc3ccncc3[nH]2)cc1	–	–	–	–	–	–
Cc1cc(-n2c(C)cc(C(=O)CSc3ncnc4ccccc34)c2C)no1	–	–	98	–	–	–
Cc1cc(C(=O)CSc2ncnc3ccccc23)c(C)n1C1CC1	–	·	98	–	–	–
CNc1nnc(SCC(=O)c2cc(C)n(C3CC3)c2C)s1	–	·	92	–	–	–
Cc1nnc(SCC(=O)c2cc(C)n(C3CC3)c2C)s1	–	–	–	–	–	·
C[C@@H]1CN([C@@H](C)CO)C(=O)Cc2cc(N(C)C)ccc2O[C@H]1CN(C)C(=O)Nc1ccc(C(F)(F)F)cc1	·	·	·	·	·	–
CS(=O)(=O)Nc1ccc2c(c1)[C@H]1C[C@H](CC(=O)NCc3cccnc3)O[C@H](CO)[C@H]1O2	·	·	·	·	·	–
SMILES	MC4R antag cAMP	NALP1 inh	ALR H2O2 inh	MC4R barr agon	HDAC3 inhib	Yeast UUG start
CCOC(=O)c1c(N)sc2c1C1CCN2CC1	–	–	98	–	–	–
CCS(=O)(=O)NCC[C@H]1CC[C@H](NC(=O)Cc2ccccn2)[C@@H](CO)O1	·	·	·	·	·	–
COc1ccc(OC)c(S(=O)(=O)Nc2ccc(O)c3ccccc23)c1	–	104	–	–	–	–
COc1ccc(OC)c(S(=O)(=O)Nc2cccc3c(O)cccc23)c1	–	·	87	–	–	–
CN(C)CCCCCCNC(=O)[C@@H]1C[C@@H]2C(=O)NCC(=O)N2[C@@H]1c1cccc(OCCO)c1	·	·	·	·	·	–
CCCNC(=O)C[C@@H]1CC[C@H]2[C@H](COc3ccc(NC(=O)c4ccc(C(F)(F)F)cc4)cc3C(=O)N2C)O1	·	·	·	·	·	–
CC(C(=O)Nc1ccc(N(C)C)cc1)N1C(=O)c2ccccc2S1(=O)=O (stereo not given)	–	·	99	–	–	–
CCOc1ccc(NC(=O)C(C)N2C(=O)c3ccccc3S2(=O)=O)cc1 (stereo not given)	–	·	–	–	–	–
CO[C@H]1CN(C)C(=O)c2cc(NC(=O)NC(C)C)ccc2OC[C@@H](C)N(Cc2ccccn2)C[C@H]1C	·	·	·	·	·	–
CCNC(=O)Nc1ccc2c(c1)C(=O)N(C)[C@H]1CC[C@@H](CC(=O)NCC3CC3)O[C@@H]1CO2	·	·	·	·	·	–
